# Yeast mating assay 1: variants of the scFv Ab-14

Reference: Engelhart et al. 2022, doi:10.1038/s41597-022-01779-4. File: FLAb, binding data.

Binding partner: SARS-CoV-2 spike HR2 peptide, sequence PDVDLGDISGINAS.

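The parent was found by panning a naive human phage display library on the peptide. The library (AAYL50) carries one to three amino acid substitutions per variant, with no insertions or deletions. The assay is AlphaSeq: two haploid yeast populations carry antibody and antigen on their surface. Pairs that bind mate more often; barcode pairs of the diploids are counted by sequencing. The ratio of observed to expected reads was calibrated, replicate by replicate, on BCL2-family standards whose Kd was known from biolayer interferometry. Mating was done three times.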

Parent scFv Ab-14: VH joined to VL by a 15-residue (Gly4Ser)3 linker. Changes lie in the light chain CDRs alone.
VH: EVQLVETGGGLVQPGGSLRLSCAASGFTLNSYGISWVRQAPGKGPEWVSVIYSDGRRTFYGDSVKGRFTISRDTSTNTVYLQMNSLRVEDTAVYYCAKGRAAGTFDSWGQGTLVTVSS
VL: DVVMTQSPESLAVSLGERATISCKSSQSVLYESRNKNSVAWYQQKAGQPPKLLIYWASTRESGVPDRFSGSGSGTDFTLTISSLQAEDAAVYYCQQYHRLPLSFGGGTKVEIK

Substitutions are numbered in sequence along the VL above, starting at 1 (not Kabat).
Every variant below is changed at R99 of the VL (sequential numbering).
Scale: log10 of Kd in nM, estimated from mating counts; low values are strong binders.
A mean of the replicates is given; it leaves out those without a signal.
A pair that was not seen in that replicate is written "ND"; this usually means weak binding, but a binder can also be missed.
Nonspecific signal, from three strains lacking the peptide, appeared in 18% of pairings of library AAYL50, centred on 4.19 (5% of these signals below 2.99); values are not corrected for it. Also given: how often the same scFv was detected with the empty control strains.
In this assay the parent's reference entry averaged 0.65; its copy inside this library read 1.68.

The variant W56L/A57K/R99E showed 4.08, 3.48, 3.34 (mean 3.63; controls 1 of 9). For E32G/R99C, the assay gave 0.95, 1.17, 1.18 (mean 1.10; controls 1 of 9). The variant S26R/S28P/R99C gave ND, ND, ND (controls 0 of 9). For Y31M/Q96R/R99Q, the assay gave ND, ND, ND (controls 2 of 9). The variant A40D/H98R/R99V gave ND, ND, ND (controls 0 of 9). The variant Y97M/R99Q gave 5.28, 4.53, ND (mean 4.91; controls 2 of 9).

The variant T59G/R99T/L102R showed 3.54, 3.01, 3.46 (mean 3.34; controls 5 of 9). The variant E61T/S62G/R99Q showed 1.84, 1.54, 1.61 (mean 1.67; controls 1 of 9). The variant R99E showed 2.69, 2.68, 2.93 (mean 2.77; controls 6 of 9). The variant R60N/R99C/L102R gave ND, 2.99, 4.77 (mean 3.88; controls 4 of 9). For K24N/A57K/R99L, the assay gave 2.13, 1.81, 1.88 (mean 1.94; controls 0 of 9). The variant A40L/R99H/P101Q showed ND, 4.68, ND (controls 0 of 9).

The variant K24E/S38A/R99M showed 2.77, 2.80, 3.14 (mean 2.90; controls 4 of 9). The variant Y31A/Y97P/R99K showed 0.74, 0.88, 0.44 (mean 0.68; controls 3 of 9). For K36F/R99V/L100K, the assay gave ND, ND, ND (controls 0 of 9). The variant K24G/N35H/R99K showed 4.07, 3.02, 3.61 (mean 3.57; controls 2 of 9). The variant E32S/R99G/L100N showed 0.87, 0.91, 0.79 (mean 0.85; controls 2 of 9). The variant S25D/R99A/L102I gave ND, ND, ND (controls 0 of 9).

The variant Q27H/R99W/L102E showed ND, 3.43, ND (controls 2 of 9). With S25E/V29Q/R99V the result was ND, ND, ND (controls 0 of 9). The variant S28V/Q96R/R99C gave 2.02, 1.82, 1.90 (mean 1.91; controls 5 of 9). The variant S28Y/R99P/S103V gave ND, ND, ND (controls 0 of 9). For V29I/Q96Y/R99Q, the assay gave 3.46, 4.12, 3.70 (mean 3.76; controls 0 of 9). The variant S26C/V29D/R99I gave 3.11, 2.27, 2.78 (mean 2.72; controls 0 of 9).

For S38Q/R99Y, the assay gave 2.36, 3.22, 2.71 (mean 2.76; controls 1 of 9). For S28T/V29N/R99V, the assay gave 0.56, 0.97, 1.32 (mean 0.95; controls 0 of 9). With R99Y/L102W the result was ND, 3.46, ND (controls 0 of 9). With R60V/R99N the result was 3.04, 2.74, 2.43 (mean 2.73; controls 4 of 9). For T59G/R99A/P101Q, the assay gave ND, ND, 4.46 (controls 3 of 9). With K24Q/R99G the result was 2.98, ND, 5.09 (mean 4.04; controls 1 of 9).

With R60K/R99Y the result was 4.08, 3.55, ND (mean 3.82; controls 0 of 9). For W56C/S58R/R99Q, the assay gave 2.37, 2.42, 2.78 (mean 2.52; controls 5 of 9). For S26P/Q95K/R99A, the assay gave 4.65, 4.82, ND (mean 4.74; controls 5 of 9). The variant K36P/R99I showed 0.64, 0.88, 0.85 (mean 0.79; controls 1 of 9). With S25L/Y31R/R99E the result was -0.03, 0.33, 0.10 (mean 0.13; controls 7 of 9). The variant K24H/R99H showed 0.59, 0.83, 0.82 (mean 0.75; controls 1 of 9).

With S25L/W56D/R99G the result was -0.66, -0.23, -0.55 (mean -0.48; controls 5 of 9). The variant V29H/R34I/R99W showed 2.13, ND, 2.49 (mean 2.31; controls 0 of 9). With V39E/H98A/R99Q the result was 4.50, 3.92, ND (mean 4.21; controls 3 of 9). With K24H/Q27E/R99H the result was 0.52, 0.67, 0.64 (mean 0.61; controls 1 of 9). The variant N37S/R99E/L100A gave ND, ND, ND (controls 0 of 9). With R60W/R99A the result was 3.49, 3.90, ND (mean 3.70; controls 2 of 9).

The variant E32A/S58G/R99G showed ND, ND, ND (controls 3 of 9). For H98D/R99N/P101A, the assay gave ND, 3.08, ND (controls 2 of 9). The variant S38A/R99G showed 0.57, 0.79, 0.69 (mean 0.69; controls 4 of 9). The variant N35L/R99P gave ND, ND, ND (controls 0 of 9).

The closing 4 entries, repeated:

Variant E32A/S58G/R99G gave ND, ND, ND (controls 3 of 9).
Variant H98D/R99N/P101A gave ND, 3.08, ND (controls 2 of 9).
Variant S38A/R99G gave 0.57, 0.79, 0.69 (mean 0.69; controls 4 of 9).
Variant N35L/R99P gave ND, ND, ND (controls 0 of 9).